What was measured:
[1] = biological target: C-C chemokine receptor type 8 (Homo sapiens, UniProt P51685); test: (§1) Antagonist activity at human CCR8 expressed in CHOK1 cells assessed as inhibition in CCL1-induced beta-arrestin 2 recruitment at 20 uM incubated for 30 mins followed by CCL1 addition and measured after 90 or 180 mins by pathhunter beta-arrestin assay relative to control; type: cell-based
In short: (§2)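 PathHunter beta-arrestin recruitment, antagonist mode, run at DiscoverX. Cells seeded and held at 37 °C, then preincubated with test sample for 30 min at 37 °C or room temperature (1% vehicle). Agonist then added at EC80 for 90 or 180 min. […] IC50 comes from concentration–response runs in the same format.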

Amino acid sequences for entries named in this document (tags omitted). A change or cut given only in a name is not applied to a line headed by its entry.
UniProt P51685, whole entry: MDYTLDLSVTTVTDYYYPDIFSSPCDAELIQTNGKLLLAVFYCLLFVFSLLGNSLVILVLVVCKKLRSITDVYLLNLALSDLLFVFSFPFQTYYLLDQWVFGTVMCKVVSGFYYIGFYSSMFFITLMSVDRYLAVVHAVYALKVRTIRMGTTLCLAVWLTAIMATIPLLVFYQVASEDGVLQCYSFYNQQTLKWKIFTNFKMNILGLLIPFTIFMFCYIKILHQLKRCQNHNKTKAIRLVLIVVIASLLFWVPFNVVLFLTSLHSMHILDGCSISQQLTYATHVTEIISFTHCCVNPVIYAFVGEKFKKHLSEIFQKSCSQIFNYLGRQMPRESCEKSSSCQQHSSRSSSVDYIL
UniProt P08173, whole entry: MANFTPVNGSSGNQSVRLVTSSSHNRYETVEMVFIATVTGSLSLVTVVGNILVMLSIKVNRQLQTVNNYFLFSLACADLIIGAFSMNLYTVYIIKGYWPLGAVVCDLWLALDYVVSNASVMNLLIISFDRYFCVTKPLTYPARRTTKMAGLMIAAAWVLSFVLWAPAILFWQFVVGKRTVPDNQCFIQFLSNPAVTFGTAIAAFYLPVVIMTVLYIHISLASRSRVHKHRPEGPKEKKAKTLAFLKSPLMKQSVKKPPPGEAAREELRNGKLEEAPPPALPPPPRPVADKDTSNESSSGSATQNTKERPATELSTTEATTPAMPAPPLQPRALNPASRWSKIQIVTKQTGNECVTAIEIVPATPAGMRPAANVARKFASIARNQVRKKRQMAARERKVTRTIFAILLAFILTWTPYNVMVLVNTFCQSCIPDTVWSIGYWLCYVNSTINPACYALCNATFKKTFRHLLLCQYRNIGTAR
UniProt P21554, whole entry: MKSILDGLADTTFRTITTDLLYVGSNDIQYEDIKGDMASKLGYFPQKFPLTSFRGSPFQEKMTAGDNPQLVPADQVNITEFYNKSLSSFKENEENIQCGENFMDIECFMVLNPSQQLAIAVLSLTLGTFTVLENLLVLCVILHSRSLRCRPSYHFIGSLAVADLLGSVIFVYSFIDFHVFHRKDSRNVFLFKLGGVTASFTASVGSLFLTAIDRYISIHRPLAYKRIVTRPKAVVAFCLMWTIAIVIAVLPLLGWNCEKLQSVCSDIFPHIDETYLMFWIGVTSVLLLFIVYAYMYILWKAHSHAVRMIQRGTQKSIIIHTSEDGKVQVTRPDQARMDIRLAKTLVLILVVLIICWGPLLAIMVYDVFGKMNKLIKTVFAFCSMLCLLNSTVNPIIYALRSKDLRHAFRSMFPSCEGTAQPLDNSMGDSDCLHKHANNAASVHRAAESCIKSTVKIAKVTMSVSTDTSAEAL
UniProt P34972, whole entry: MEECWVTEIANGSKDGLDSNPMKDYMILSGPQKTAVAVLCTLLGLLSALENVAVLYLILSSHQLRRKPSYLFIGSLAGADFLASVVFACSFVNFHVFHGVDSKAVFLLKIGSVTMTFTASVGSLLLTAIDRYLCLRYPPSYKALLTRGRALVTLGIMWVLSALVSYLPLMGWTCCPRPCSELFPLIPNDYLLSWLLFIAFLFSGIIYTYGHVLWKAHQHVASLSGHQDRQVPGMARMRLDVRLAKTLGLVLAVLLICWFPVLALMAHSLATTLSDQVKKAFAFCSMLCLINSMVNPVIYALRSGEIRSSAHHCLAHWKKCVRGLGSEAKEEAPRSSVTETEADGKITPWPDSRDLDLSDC
UniProt P61073, whole entry: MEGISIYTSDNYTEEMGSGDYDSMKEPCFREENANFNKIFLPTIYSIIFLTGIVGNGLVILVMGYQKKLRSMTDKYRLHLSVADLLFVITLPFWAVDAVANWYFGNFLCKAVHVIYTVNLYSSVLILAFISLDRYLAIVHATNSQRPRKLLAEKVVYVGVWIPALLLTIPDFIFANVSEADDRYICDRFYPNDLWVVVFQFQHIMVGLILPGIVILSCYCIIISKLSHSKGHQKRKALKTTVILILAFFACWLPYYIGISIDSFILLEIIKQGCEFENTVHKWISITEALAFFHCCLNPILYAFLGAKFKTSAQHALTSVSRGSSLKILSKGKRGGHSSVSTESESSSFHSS
UniProt P14416, whole entry: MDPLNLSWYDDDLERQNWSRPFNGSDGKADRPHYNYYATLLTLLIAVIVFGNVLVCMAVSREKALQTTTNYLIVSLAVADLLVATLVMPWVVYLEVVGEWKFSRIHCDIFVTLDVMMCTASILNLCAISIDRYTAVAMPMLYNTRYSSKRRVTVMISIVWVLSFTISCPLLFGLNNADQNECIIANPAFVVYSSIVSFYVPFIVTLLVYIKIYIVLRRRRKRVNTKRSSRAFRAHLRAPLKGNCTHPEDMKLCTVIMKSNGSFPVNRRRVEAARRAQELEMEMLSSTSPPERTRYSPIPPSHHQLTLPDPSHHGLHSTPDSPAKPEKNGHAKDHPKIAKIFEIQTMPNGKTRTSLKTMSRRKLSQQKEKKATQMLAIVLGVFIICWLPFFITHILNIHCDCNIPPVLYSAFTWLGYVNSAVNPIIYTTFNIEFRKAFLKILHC
UniProt O43614, whole entry: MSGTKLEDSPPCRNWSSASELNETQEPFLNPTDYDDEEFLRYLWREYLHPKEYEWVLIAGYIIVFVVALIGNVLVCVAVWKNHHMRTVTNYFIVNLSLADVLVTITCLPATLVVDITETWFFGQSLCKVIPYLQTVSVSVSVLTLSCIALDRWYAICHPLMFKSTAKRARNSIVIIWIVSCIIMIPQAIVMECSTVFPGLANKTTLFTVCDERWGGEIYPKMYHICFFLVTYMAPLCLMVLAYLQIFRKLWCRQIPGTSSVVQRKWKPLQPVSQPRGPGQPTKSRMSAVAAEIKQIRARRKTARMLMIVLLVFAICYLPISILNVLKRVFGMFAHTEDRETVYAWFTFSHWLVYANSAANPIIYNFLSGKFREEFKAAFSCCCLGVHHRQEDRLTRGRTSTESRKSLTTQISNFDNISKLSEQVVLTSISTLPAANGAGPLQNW
UniProt P43119: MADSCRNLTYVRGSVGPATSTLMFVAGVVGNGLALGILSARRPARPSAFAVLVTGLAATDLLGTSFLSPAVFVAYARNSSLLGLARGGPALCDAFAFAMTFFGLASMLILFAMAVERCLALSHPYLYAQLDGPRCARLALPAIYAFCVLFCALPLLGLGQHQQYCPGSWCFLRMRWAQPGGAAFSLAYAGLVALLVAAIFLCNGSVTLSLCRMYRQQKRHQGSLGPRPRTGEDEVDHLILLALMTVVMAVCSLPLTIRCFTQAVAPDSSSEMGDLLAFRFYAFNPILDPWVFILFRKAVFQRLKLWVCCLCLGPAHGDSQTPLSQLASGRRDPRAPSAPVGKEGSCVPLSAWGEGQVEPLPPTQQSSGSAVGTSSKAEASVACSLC
UniProt P35367, whole entry: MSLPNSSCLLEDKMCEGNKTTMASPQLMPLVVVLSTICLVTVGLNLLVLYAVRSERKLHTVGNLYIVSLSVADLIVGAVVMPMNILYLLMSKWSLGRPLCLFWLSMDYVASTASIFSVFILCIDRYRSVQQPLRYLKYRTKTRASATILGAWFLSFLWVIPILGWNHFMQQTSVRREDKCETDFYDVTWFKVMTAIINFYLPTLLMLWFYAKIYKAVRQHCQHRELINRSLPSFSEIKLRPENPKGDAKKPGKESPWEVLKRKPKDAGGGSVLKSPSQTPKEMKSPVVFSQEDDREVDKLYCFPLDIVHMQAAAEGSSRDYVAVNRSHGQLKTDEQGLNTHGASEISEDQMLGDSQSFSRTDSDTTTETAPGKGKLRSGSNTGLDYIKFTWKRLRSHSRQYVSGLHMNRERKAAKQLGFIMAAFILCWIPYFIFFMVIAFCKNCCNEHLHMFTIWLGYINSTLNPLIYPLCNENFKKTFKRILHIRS

[2] = biological target: Muscarinic acetylcholine receptor M4 (Homo sapiens, UniProt P08173); test: as §1, with “Gs/Gi/o-coupled CHRM4” for “CCR8”, “acetylcholine-induced” for “CCL1-induced”, “acetylcholine” for “CCL1”; type: cell-based; in short: as §2
[3] = biological target: Cannabinoid receptor 1 (Homo sapiens, UniProt P21554); test: Antagonist activity at human Gi/o-coupled CNR1 expressed in CHOK1 cells assessed as inhibition in CP55940-induced beta-arrestin 2 recruitment at 20 uM incubated for 30 mins followed by CP55940 addition and measured after 90 or 180 mins by pathhunter beta-arrestin assay relative to control; type: cell-based; in short: as §2
[4] = biological target: Cannabinoid receptor 2 (Homo sapiens, UniProt P34972); test: Antagonist activity at human Gi/o-coupled CNR2 expressed in CHOK1 cells assessed as inhibition in CP55940-induced beta-arrestin 2 recruitment at 20 uM incubated for 30 mins followed by CP55940 addition and measured after 90 or 180 mins by pathhunter beta-arrestin assay relative to control; type: cell-based; in short: as §2
[5] = biological target: C-X-C chemokine receptor type 4 (Homo sapiens) (UniProt P61073); test: Antagonist activity at human Gi/o-coupled CXCR4 expressed in mouse C2C12 cells assessed as inhibition in CXCL12-induced beta-arrestin 2 recruitment at 20 uM incubated for 30 mins followed by CXCL12 addition and measured after 90 or 180 mins by pathhunter beta-arrestin assay relative to control; type: cell-based; in short: as §2
[6] = biological target: D(2) dopamine receptor (Homo sapiens) (UniProt P14416); test: Antagonist activity at human Gi/o-coupled DRD2L expressed in CHOK1 cells assessed as inhibition in dopamine-induced beta-arrestin 2 recruitment at 20 uM incubated for 30 mins followed by dopamine addition and measured after 90 or 180 mins by pathhunter beta-arrestin assay relative to control; type: cell-based; in short: as §2
[7] = biological target: T1, Glucose-dependent insulinotropic receptor (Homo sapiens) (UniProt Q8TDV5); test: Antagonist activity at human GPR119 assessed as inhibition in oleoylethanolamide-induced beta-arrestin 2 recruitment at 20 uM incubated for 30 mins followed by oleoylethanolamide addition and measured after 90 or 180 mins by pathhunter beta-arrestin assay relative to control; in short: as §2
T1 sequence (whole entry): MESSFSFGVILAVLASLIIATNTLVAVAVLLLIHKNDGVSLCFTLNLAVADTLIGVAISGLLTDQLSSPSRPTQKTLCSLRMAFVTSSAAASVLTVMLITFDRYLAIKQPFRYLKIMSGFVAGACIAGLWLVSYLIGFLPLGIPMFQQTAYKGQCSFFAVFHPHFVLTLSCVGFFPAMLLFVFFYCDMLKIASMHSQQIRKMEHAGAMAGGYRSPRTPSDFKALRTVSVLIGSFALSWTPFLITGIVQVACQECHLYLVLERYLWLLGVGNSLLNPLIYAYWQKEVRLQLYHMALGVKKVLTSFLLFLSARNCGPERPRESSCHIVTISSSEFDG

[8] = biological target: Orexin receptor type 2 (Homo sapiens, UniProt O43614); test: (§3) Antagonist activity at human Gq-coupled HCRTR2 expressed in CHOK1 cells assessed as inhibition in Orexin A-induced beta-arrestin 2 recruitment at 20 uM incubated for 30 mins followed by Orexin A addition and measured after 90 or 180 mins by pathhunter beta-arrestin assay relative to control; type: cell-based; in short: as §2
[9] = biological target: T2, Neuropeptide S receptor (Homo sapiens) (UniProt Q6W5P4); test: as §3, with “NPSR1b” for “HCRTR2”, “human U2OS” for “CHOK1”, “neuropeptide S-induced” for “Orexin A-induced”, “neuropeptide S” for “Orexin A”; type: cell-based; in short: as §2
T2 sequence (whole entry): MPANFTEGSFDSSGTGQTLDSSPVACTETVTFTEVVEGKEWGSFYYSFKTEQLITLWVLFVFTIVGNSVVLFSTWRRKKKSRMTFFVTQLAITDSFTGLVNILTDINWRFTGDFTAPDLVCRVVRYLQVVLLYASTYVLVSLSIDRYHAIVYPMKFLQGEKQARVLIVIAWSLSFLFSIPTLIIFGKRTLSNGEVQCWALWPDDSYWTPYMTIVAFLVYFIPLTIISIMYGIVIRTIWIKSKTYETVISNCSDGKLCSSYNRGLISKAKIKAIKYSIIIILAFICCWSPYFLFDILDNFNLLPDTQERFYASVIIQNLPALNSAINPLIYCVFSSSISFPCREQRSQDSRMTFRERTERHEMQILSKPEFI

[10] = biological target: T3, Prolactin-releasing peptide receptor (Homo sapiens) (UniProt P49683); test: as §3, with “PRLHR” for “HCRTR2”, “prolactin releasing peptide (1 to 31)-induced” for “Orexin A-induced”, “prolactin releasing peptide (1 to 31)” for “Orexin A”; type: cell-based; in short: as §2
T3 sequence (whole entry): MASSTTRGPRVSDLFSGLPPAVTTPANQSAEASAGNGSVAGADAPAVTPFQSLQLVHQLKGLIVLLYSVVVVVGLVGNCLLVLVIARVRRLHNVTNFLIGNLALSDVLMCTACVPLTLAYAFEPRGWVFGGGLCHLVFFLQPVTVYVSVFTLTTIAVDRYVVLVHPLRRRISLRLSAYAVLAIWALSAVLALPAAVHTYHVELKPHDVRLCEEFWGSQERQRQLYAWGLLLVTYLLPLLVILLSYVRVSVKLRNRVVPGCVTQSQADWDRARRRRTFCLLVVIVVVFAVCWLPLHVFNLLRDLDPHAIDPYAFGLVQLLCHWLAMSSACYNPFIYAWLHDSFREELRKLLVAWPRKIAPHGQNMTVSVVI

[11] = biological target: Prostacyclin receptor (Homo sapiens, UniProt P43119); test: Antagonist activity at human Gs-coupled PTGIR assessed as inhibition in beraprost-induced beta-arrestin 2 recruitment at 20 uM incubated for 30 mins followed by beraprost- addition and measured after 90 or 180 mins by pathhunter beta-arrestin assay relative to control; in short: as §2
[12] = biological target: Histamine H1 receptor (Homo sapiens) (UniProt P35367); conditions: at 20 µM

inhibition [1] [%] | inhibition [2] [%] | inhibition [3] [%] | inhibition [4] [%] | inhibition [5] [%] | inhibition [6] [%] | inhibition [7] [%] | inhibition [8] [%] | inhibition [9] [%] | inhibition [10] [%] | inhibition [11] [%] | inhibition [12] [%] | SMILES
83 | 55 | 69 | 51 | 38 | 15 | 66 | 29 | 76 | 82 | 76 | 25 | CC[C@]12C=C(C(=O)OC)n3c(c(CCNC(=O)c4ccc(Br)cc4)c4ccccc43)[C@H]1N(C#N)CCC2
75 | 62 | 90 | 100 | 80 | 6 | 86 | 26 | 81 | 84 | 97 | – | CC[C@]12CCCN(C(=O)c3cccc(Br)c3)CCc3c(n(c4ccccc34)C(=O)C1)[C@@H]2OC
